Assays:
[1] = system: T cells of the four subsets used in the in vitro analyses; details: concentrations of SDF-1 used
[2] = system: murine PBMC or CD3+ cells; details: concentrations of SDF-1 used

Substance: SDF-1α
- toxicity on T cells [1]: no demonstrable toxicity
- apoptosis [2]: no evidence of apoptosis

Reference: patent US7775469B2, “Purposeful movement of human migratory cells away from an agent source” (The General Hospital Corporation, priority 1999, dated 2010)
